The values below come from patent US5610174A, “Use of α1A -selective adrenoceptor agonists for the treatment of urinary incontinence” (priority 1995, dated 1997).

The target of one test is T1, human α1C adrenoceptor (Homo sapiens, UniProt P35348).
T1 sequence (P35348 1-466): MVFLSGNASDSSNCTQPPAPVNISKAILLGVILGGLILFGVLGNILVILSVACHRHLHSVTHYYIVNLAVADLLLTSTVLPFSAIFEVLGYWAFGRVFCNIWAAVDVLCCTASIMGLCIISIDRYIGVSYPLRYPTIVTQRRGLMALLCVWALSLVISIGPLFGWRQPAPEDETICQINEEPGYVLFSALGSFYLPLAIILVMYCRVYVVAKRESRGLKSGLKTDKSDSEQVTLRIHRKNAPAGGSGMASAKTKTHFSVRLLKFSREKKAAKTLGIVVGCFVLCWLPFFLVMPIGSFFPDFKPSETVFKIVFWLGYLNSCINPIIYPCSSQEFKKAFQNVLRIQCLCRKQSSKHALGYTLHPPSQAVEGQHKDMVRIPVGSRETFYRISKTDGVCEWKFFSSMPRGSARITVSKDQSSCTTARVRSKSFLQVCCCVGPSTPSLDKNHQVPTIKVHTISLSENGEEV
The test can be described thus: biochemical. The conditions noted are these: Table 2; antagonists; versus 3H-prazosin; read-out: pKI (antagonist affinity, 3H-prazosin binding) hα1C (converted).

The target of test [1] is T2, human urethra (α1-adrenoceptor) (Homo sapiens, UniProt P35348).
T2 construct: Tissue samples from the proximal urethra of male humans; from tissue; host or cells: human male proximal urethra strips
T2 sequence (P35348 1-466): T1 sequence (P35348 1-466)
The test can be described thus: Contractile study in isolated human male urethra. The settings on record: versus phenylephrine-induced contraction; read-out: pKB Human Urethra Male (converted).

For test [2], the target named is T3, dog BN, female (α1-adrenoceptor) (Canis lupus, UniProt A0A8I3NK63).
T3 sequence (A0A8I3NK63 1-466): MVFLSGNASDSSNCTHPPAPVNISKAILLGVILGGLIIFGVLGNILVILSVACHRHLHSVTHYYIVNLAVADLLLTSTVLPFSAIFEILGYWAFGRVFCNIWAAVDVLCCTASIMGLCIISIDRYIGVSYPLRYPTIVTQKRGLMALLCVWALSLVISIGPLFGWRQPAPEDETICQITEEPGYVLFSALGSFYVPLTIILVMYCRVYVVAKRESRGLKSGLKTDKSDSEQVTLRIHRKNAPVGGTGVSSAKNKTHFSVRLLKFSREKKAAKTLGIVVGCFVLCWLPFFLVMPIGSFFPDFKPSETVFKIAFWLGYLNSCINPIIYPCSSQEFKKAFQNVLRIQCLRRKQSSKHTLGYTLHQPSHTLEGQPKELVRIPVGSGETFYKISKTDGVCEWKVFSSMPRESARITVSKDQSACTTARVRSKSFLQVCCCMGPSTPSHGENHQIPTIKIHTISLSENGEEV
The test can be described thus: Contractile study in isolated female dog bladder neck.

The target in test [3] is T4, female dog urethra (α1-adrenoceptor) (Canis lupus, UniProt A0A8I3NK63).
T4 sequence (A0A8I3NK63 1-466): T3 sequence (A0A8I3NK63 1-466)
Description: Contractile study in isolated female dog urethra. The settings on record: agonist SK&F 102652.

The target in test [4] is T5, dog BN, male (α1-adrenoceptor) (Canis lupus, UniProt A0A8I3NK63).
T5 sequence (A0A8I3NK63 1-466): T3 sequence (A0A8I3NK63 1-466)
Description: Contractile study in isolated male dog bladder neck. The conditions noted are these: versus phenylephrine-induced contraction.

For `COc1ccccc1N1CCN(CCN2C(=O)CC3(CCCC3)CC2=O)CC1` [BMY 7378], at human α1C adrenoceptor, the Ki was 158 nM. Further, in test [1], the Kb is 31.6 nM.

As for `COc1cc2nc(N3CCN(C(=O)c4ccco4)CC3)nc(N)c2cc1OC` [Prazosin], the “Prazosin pKB Bladder Neck” value in test [2] (female dog bladder neck, agonist SK&F 102652) turned out to be 7.8. Besides, the “pKB Dog BN Female” value in test [2] (versus phenylephrine-induced contraction) is given as 8.0. The “Prazosin pKB Urethra” value in test [3] turned out to be 8.5. The “pKB Dog BN Male” value in test [4] came to 8.2.
